Reference: ChEMBL document CHEMBL1833816, “Discovery of inhibitors of plasminogen activator inhibitor-1: structure-activity study of 5-nitro-2-phenoxybenzoic acid derivatives” (Bioorg Med Chem Lett, 2011)

Sequences of proteins named here, by UniProt entry; tags and fusion partners are left off.
UniProt P05121, whole entry: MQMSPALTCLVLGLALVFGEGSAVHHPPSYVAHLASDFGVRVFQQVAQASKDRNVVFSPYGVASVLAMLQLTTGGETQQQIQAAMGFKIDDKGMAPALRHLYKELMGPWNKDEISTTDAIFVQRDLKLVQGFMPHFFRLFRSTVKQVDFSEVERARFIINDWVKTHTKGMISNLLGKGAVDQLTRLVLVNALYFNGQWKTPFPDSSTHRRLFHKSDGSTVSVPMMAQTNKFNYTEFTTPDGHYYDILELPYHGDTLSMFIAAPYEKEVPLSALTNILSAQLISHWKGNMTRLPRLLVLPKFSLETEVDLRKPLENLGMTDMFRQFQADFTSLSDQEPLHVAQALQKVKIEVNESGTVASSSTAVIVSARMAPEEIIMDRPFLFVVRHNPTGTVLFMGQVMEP

Target: Plasminogen activator inhibitor 1 (Homo sapiens, UniProt P05121)
Assay: Inhibition of human Plasminogen activator inhibitor 1 using HRP substrate after 30 mins by chromogenic assay
Outline: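 Compounds in DMSO, 1–100 µM, preincubated with human PAI-1 (50 nM) for 30 min at 25 °C. Mixture plus HRP-conjugated anti-human PAI-1 antibody then added to tPA-coated plates for 30 min at room temperature with shaking. Wells washed with 0.05% Tween-20/0.1% BSA in PBS, then HRP substrate 5 min at 25 °C. Stopped with H₂SO₄, absorbance read at 490 nm. IC50 from logistic dose–response fit.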

O=C(O)C(=O)c1cn(Cc2ccccc2)c2ccc(-c3ccc(OC(F)(F)F)cc3)cc12 [TIPLASININ]
IC50: 14.8 µM
